The data set is described as follows: Thin layer chromatography Rf (lipophilicity). The data set is classed as physicochemical. The conditions noted are these: thin-layer silica, saturated KNO3(aq):H2O:MeCN (1:1:8); measure of lipophilicity. As for the experimental part:
Thin layer chromatography (TLC) was carried out in polyester-backed silica-gel sheets without fluorescent indicator (Sigma-Aldrich Z122777-25EA) cut into ˜2×20 cm strips and eluted with a saturated KNO3(aq):H2O:MeCN (1:1:8, v/v/v) mixture in a capped 1 L chamber. Typically, 1 microliter of ˜1 mM samples were applied at ˜1 cm of the strip border and the solvent front was allowed to run ˜12 cm.
Table indicating the redox properties (E1/2 of the Mn^IIIP/Mn^IIP redox couple) and antioxidant (log kcat for the dismutation of superoxide, O2′^−) properties of ortho and meta isomers of Mn N-substituted pyridylporphyrins. The E1/2 and log kcat were determined as described in Reboucas et al., Dalton Trans., 2008, 1233-42. Rf is the ratio of the drug path over solvent path on thin-layer silica with water/acetonitrile/KNO3 saturated water and is a measure of […]. […] In addition, as the length of the pyridyl substituent increases the SOD activity of the ortho compounds drops while there is no change in the SOD activity of the meta compounds.
Rf is a measure of lipophilicity and is linearly related to log P where P is the partition coefficient between water and n-octanol. (Kos et al., Free Radic. Biol. Med., 47, 72-78, 2009, which is incorporated by reference herein).

Data on one substance can be found in patent US20110275606A1, “SUBSTITUTED PORPHYRINS” (DUKE UNIVERSITY, priority 2009, published 2011).

As to MnTnPrOH-3-PyP^5+, the Rf came out at 0.05.
